# Experimental data reported in patent US10836728B2, “Substituted 3-dialkylaminomethyl-piperidin-4-yl-benzamides and methods of making and using same” (MEBIAS DISCOVERY, INC., priority 2017, dated 2020).
# Assays:
# [1] = tested on: tail flick response; assay: Rat tail flick nociceptive pain model; format: in vivo; details: SC
# Method: In rodents, the tail flick response to radiant heat is commonly used as a model to detect potentially useful analgesic agents.
# Procedurally, the time (seconds) required to elicit a tail flick response induced by focused radiant heat is measured as the pain threshold in groups of 8 Sprague-Dawley (SD) male rats weighing 110±20 g. Prolongation by 50 percent or more (≥50) of the time required to elicit a tail flick response 15 and 30 minutes following administration of test substance indicates possible analgesic activity. Also, one-way ANOVA followed by Dunnett's test is applied for comparison between vehicle control and treatment groups.
# [2] = tested on: intestinal transit; assay: Gastrointestinal motility (charcoal transit); details: rat, SC
# Method: At 30 minutes post subcutaneous dosing, the animals were given a suspension of 5% charcoal in 10% gum arabic solution (2 ml/animal p.o.) and sacrificed 15 minutes later. The intestine was removed, and the length of the gut in cm (GL) as well as extent of charcoal movement from the pylorus to the beginning of the charcoal column in cm (CP) was measured.
# Intestinal transit (IT) was calculated as IT=(CP/GL)×100%. A 30% or more (30) increase or decrease intestinal transit (IT), relative to the vehicle control group, was considered significant. The values in animals treated with test compounds compared with vehicle control group were also analyzed by using one-way ANOVA followed by Dunnett's test. Differences are considered statistically significant at P<0.05.
# [3] = tested on: place preference; assay: Conditioned place preference; details: rat, SC, 5 mg/kg
# [4] = tested on: sedation; assay: Accelerating RotaRod (sedation); details: rat, SC
# [5] = Respiratory depression test (O2 partial pressure); details: rat, SC, at 30 minutes, vehicle 96 mm Hg
smiles,measurement,setting,value
"CN1CC[C@]23c4c5ccc(O)c4O[C@H]2[C@@H](O)C=C[C@H]3[C@H]1C5 [Morphine, reference compound]",Dose to reach the ED80 of morphine in rat tail flick,[1],1 mg/kg
same,Reduction in transit relative to vehicle,[2]; 1 mg/kg,small reduction in transit
same,Reduction in transit relative to vehicle,[2]; 5 mg/kg,significant reduction in transit
same,Preference for drug chamber over saline chamber,[3],significant preference for the morphine chamber over the saline chamber
same,"Sedation, accelerating RotaRod",[4]; 1 mg/kg,no sedation
same,"Sedation, accelerating RotaRod",[4]; 5 mg/kg,significant sedation
same,O2 partial pressure,[5]; 1 mg/kg,the same O2 partial pressure as vehicle
same,O2 partial pressure,[5]; 5 mg/kg,74 mm Hg
